Where two headings read alike, the source gives them in different places.
Settings: for Qualitative Tmax (urine collection with greatest excretion): 12h urine collections, np = no peak; for Cmax (nmol excreted): urine, mean ± SD

Substance: delphinidin glucuronide
- Qualitative Tmax (urine collection with greatest excretion) (High dose (1000 mg/kg bw)): 0 to 12 h
- Cmax (nmol excreted) (High dose (1000 mg/kg bw)): 20.8 ± 5.1 nmol excreted
- Qualitative Tmax (urine collection with greatest excretion) (Low dose (75 mg/kg bw)): np
- Cmax (nmol excreted) (Low dose (75 mg/kg bw)): np
- Qualitative Tmax (urine collection with greatest excretion) (Medium dose (350 mg/kg bw)): 0 to 12 h
- Cmax (nmol excreted) (Medium dose (350 mg/kg bw)): 6.35 ± 1.60 nmol excreted
